These are literature values, as cited in article PMC3098207 (Malaria Journal, 2011).

The conditions of the data set: IV AS; ref Binh et al 16, Batty et al 17; cited from earlier work.

As for `C[C@H]1[C@H](OC(=O)CCC(=O)O)O[C@@H]2O[C@@]3(C)CC[C@H]4[C@H](C)CC[C@@H]1[C@@]24OO3` [AS, artesunate], the AS half-life estimates result is “less than ten minutes”.
